# Measured values taken from patent US20230233469A1, “SEMI-SOLID FORMULATION FOR VOLUNTARY ORAL ADMINISTRATION OF BIOACTIVE COMPOUNDS TO RODENTS” (priority 2020, published 2023).
# The chains behind the UniProt entries cited, without tags or fusion partners. Residues count along the entry.
# UniProt P28843, 37-760 limits assumed: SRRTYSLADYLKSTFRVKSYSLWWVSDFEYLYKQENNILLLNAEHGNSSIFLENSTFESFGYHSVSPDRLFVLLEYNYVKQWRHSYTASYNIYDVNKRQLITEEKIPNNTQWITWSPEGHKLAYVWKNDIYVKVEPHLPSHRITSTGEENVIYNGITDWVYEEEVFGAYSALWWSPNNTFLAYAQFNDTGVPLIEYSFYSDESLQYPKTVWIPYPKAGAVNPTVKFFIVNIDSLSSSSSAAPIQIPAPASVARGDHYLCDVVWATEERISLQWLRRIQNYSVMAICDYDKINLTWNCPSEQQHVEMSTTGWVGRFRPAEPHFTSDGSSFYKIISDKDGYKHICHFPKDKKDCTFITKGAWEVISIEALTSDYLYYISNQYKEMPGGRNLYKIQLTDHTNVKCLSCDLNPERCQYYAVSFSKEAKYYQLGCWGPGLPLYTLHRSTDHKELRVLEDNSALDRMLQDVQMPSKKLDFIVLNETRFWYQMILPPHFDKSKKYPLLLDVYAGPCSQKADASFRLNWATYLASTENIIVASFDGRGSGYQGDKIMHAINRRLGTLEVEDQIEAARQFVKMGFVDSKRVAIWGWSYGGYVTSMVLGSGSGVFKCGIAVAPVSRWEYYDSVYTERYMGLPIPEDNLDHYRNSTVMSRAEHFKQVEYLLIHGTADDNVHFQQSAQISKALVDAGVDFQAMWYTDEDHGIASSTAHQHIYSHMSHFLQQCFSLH
# Biological target: DPPIV (Mus musculus, UniProt P28843)
# Details: 50 mg/Kg once, plasma
structure (smiles),measurement,value
N[C@@H](CC(=O)N1CCn2c(nnc2C(F)(F)F)C1)Cc1cc(F)c(F)cc1F [sitagliptin],decrease on DPPIV activity,80-90%
